# Ab-95 light chain CDR variants: yeast mating affinities

Data: MIT Lincoln Laboratory AlphaSeq set, Engelhart et al. 2022, doi:10.1038/s41597-022-01779-4, as distributed in FLAb.

Target: peptide PDVDLGDISGINAS, taken from heptad repeat 2 (HR2) of SARS-CoV-2 spike.

Each scFv is VH, a 15-residue (Gly4Ser)3 linker, VL, as in the parent Ab-95, and differs from it in the CDRs of the light chain only.
VH: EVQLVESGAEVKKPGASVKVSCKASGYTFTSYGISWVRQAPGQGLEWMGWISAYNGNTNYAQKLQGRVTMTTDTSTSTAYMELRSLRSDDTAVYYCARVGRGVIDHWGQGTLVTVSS
VL: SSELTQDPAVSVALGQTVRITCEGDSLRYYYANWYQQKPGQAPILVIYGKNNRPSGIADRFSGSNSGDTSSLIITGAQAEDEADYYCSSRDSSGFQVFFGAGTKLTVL

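The starting antibody came from a phage panning campaign against this peptide. AAYL52 was designed without a model: most single CDR substitutions and a random sample of double and triple ones. AlphaSeq pools MATa yeast showing the antibodies with MATalpha yeast showing the peptide. Pairs that bind mate more often; barcode pairs of the diploids are counted by sequencing. The ratio of observed to expected reads was calibrated, replicate by replicate, on BCL2-family standards whose Kd was known from biolayer interferometry. Mating was done three times.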

Variants are written as CDR1, CDR2 and CDR3 of the light chain (limits as in the source). Parent: EGDSLRYYYAN, GKNNRPS, SSRDSSGFQVF.
This list gathers variants with a substitution at D25 (VL, numbered from residue 1).
Numbers give log10(Kd / nM), so 0 is 1 nM and 3 is 1 µM. Smaller is tighter.
Replicates are averaged; those with no signal do not enter the mean.
An entry "nd" has no value in the source: the pair was not observed among the diploids in any replicate. This suggests poor binding but is not conclusive.
Entries are sorted by rising average, undetected variants last.
For reference, the parent read 2.31 as the reference entry and 2.25 as a member of this library.
Nonspecific signal, from three strains lacking the peptide, appeared in 28% of pairings of library AAYL52, centred on 3.91 (5% of these signals below 2.90); values are not corrected for it.

* EGESLRYAYAN, GKNNRPS, SSRDSSGFQVF = 0.86 (3 of 3 replicates)
* EGWSLRYYDAN, GKSNRPS, SSRDSSGFQVF = 1.60 (3 of 3 replicates)
* EGKSLQYKYAN, GKNNRPS, SSRDSSGFQVF = 1.61 (3 of 3 replicates)
* EGVSLRYYYAN, GKNNRPS, SSRDSSGFQVF = 2.04 (3 of 3 replicates)
* EGTSLRYYYAN, GKNNRPS, SSRDDSPFQVF = 2.07 (3 of 3 replicates)
* EGGSLRYYYAN, GKNNRPS, SSRDSSGFQVK = 2.11 (3 of 3 replicates)
* EGWSLRYYEAN, GNNNRPS, SSRDSSGFQVF = 2.12 (3 of 3 replicates)
* EGMSLRYYYAN, GKNNRPS, SSRDSSGFQVN = 2.24 (3 of 3 replicates)
* EGHSLRYYYAN, GKNNRPS, SSRDASGFQVM = 2.32 (3 of 3 replicates)
* EGQSNRYHYAN, GKNNRPS, SSRDSSGFQVF = 2.43 (3 of 3 replicates)
* EGASLRYYYAN, GKNNRPS, SSRDSCVFQVF = 2.54 (3 of 3 replicates)
* NGASLRYYYAN, GKNNRPS, SSRDGSGFQVF = 2.57 (3 of 3 replicates)
* EGKHLRYYYAN, GYNNRPS, SSRDSSGFQVF = 2.77 (3 of 3 replicates)
* EGQSLRYYYLN, GKNNKPS, SSRDSSGFQVF = 2.78 (3 of 3 replicates)
* EGWSLRYCYAN, GKNNRPS, SSCDSSGFQVF = 2.79 (2 of 3 replicates)
* EGWSLRYYYAN, GKNNRPS, SVRDSSGFSVF = 2.80 (3 of 3 replicates)
* EGMSLRYYYAN, GKNNRPS, SSRDSSGFQGF = 2.85 (1 of 3 replicates)
* EGFSLRYYYAN, GKNNRPS, SSRDSSGFQVF = 2.89 (3 of 3 replicates)
* EGFSNRYYYAN, GKNNRPS, SSRDSSGFQVF = 2.89 (3 of 3 replicates)
* EGNSLRRYYAN, GKNNRPS, SSRDSSGFQVC = 2.96 (2 of 3 replicates)
* EGSSLRYYYAS, GKNNRPS, SSRDSSGAQVF = 2.96 (3 of 3 replicates)
* EGGSLRYYYAN, GKNNRPS, SSRGSAGFQVF = 3.01 (3 of 3 replicates)
* EGRSLRYYYAN, GGNNRPS, SSRDSSGKQVF = 3.07 (3 of 3 replicates)
* EGRSLRYYYAN, GKNTRPS, SFRDSSGFQVF = 3.13 (3 of 3 replicates)
* EGTSLRYYYAN, QKNNRPS, SSRDESGFQVF = 3.25 (3 of 3 replicates)
* EGLSLRYYYAN, GKNNRPS, SARDSFGFQVF = 3.31 (3 of 3 replicates)
* EGTSLRYYYAN, TKNNRPQ, SSRDSSGFQVF = 3.33 (2 of 3 replicates)
* EGMSLFLYYAN, GKNNRPS, SSRDSSGFQVF = 3.42 (2 of 3 replicates)
* EGMSDRYYYAN, GKNNRPS, SSRDSSGFQVF = 3.44 (2 of 3 replicates)
* EGESLRYYYAN, QKNNRPS, SSRDSSGWQVF = 3.55 (3 of 3 replicates)
* EGISLRYYYAN, GKYERPS, SSRDSSGFQVF = 3.56 (1 of 3 replicates)
* EGMSLRYYYAN, VKNNRPK, SSRDSSGFQVF = 3.60 (3 of 3 replicates)
* EGKSLVYYYIN, GKNNRPS, SSRDSSGFQVF = 3.64 (3 of 3 replicates)
* EGWSLIYYYAN, GKNNRPS, SSCDSSGFQVF = 3.74 (1 of 3 replicates)
* EGNSWRYYYAN, GKNNRPS, SSRDSHGFQVF = 3.87 (1 of 3 replicates)
* EGTMLRYYYAN, GKNNRPS, SSRDSSGFDVF = 3.95 (1 of 3 replicates)
* EGYSVRYYYAN, GKNNRPS, SSRDSSGKQVF = 3.97 (3 of 3 replicates)
* EGKSLRYYYAN, MKYNRPS, SSRDSSGFQVF = 4.14 (1 of 3 replicates)
* EGNSLRCYYAN, GKNNMPS, SSRDSSGFQVF = 4.17 (2 of 3 replicates)
* RGISLRYYYAN, GKNNRPS, SSLDSSGFQVF = 4.42 (2 of 3 replicates)
* EGRSLRYYIAY, GKNNRPS, SSRDSSGFQVF = 4.69 (1 of 3 replicates)
* EGYSLRYYYAN, GKNDAPS, SSRDSSGFQVF = 4.70 (2 of 3 replicates)
* EGVSLRYYYAN, GVNNPPS, SSRDSSGFQVF = 4.94 (2 of 3 replicates)
* EGGSLRYYYAF, GKNNRPS, SSRDSSGFQVF = nd (0 of 3 replicates)
* EGVSLRYYYAN, GKNNRPW, SSRDSSGFQVT = nd (0 of 3 replicates)
* QGLSLRYYYMN, GKNNRPS, SSRDSSGFQVF = nd (0 of 3 replicates)
* EGGSLRYYYAN, GKNNEPS, SSRDSSWFQVF = nd (0 of 3 replicates)

Excerpt, the final 3 entries:

* EGVSLRYYYAN, GKNNRPW, SSRDSSGFQVT -> nd (0 of 3 replicates)
* QGLSLRYYYMN, GKNNRPS, SSRDSSGFQVF -> nd (0 of 3 replicates)
* EGGSLRYYYAN, GKNNEPS, SSRDSSWFQVF -> nd (0 of 3 replicates)